The values that follow come from PMC8812461, “Synthesis of New 3-Arylcoumarins Bearing N-Benzyl Triazole Moiety: Dual Lipoxygenase and Butyrylcholinesterase Inhibitors With Anti-Amyloid Aggregation and Neuroprotective Properties Against Alzheimer’s Disease” (Frontiers in Chemistry, 2022).

Chains of the proteins cited; added tags and fusions are not shown. Residues count along the entry.
UniProt P05067, 672-711: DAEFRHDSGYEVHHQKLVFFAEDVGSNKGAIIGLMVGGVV

One may read the inhibition as how much of the control response was suppressed.

For this experiment, the target named is T1, Aβ1-42 in the presence of AChE (Homo sapiens, UniProt P05067).
T1 construct: was used to dissolve amyloid β1-40 (Sigma A1075); purchased Sigma (Aβ); Merck or Aldrich (AChE) A1075 (Aβ)
The experiment in a line: AChE-induced Aβ1-42 aggregation (ThT assay). It counts as biochemical. The settings on record: read-out: Inhibition of AChE-induced Aβ1-42 aggregation.

As for `COc1cc2c(cc1OC)C(=O)C(CC1CCN(Cc3ccccc3)CC1)C2` (stereo not shown) [Donepezil, donepezil, reference compound], the inhibition at 100 µM was determined as 78.3 ± 5%.
